Assay results reported in US20110071198A1, “NICOTINIC ACID RECEPTOR LIGANDS” (priority 2008, published 2011).

Test system: cPLA2
Format: cell-based
Conditions: 200 μM nicotinic acid, control siRNA

O=C(O)c1cccnc1 [nicotinic acid, Nicotinic acid]
phosphorylated cPLA2 after stimulation: increase in phosphorylated cPLA2
